Reference: patent US20170267560A1, “TABLETS FOR TREATING AND DISINFECTING WATER” (ERCROS, S.A., priority 2014, published 2017)

Tests used:
[1] = Chemical compatibility with TCCA: chlorine gas released after 15 hours at 60±2° C., iodometric titration; conditions: TCCA mixtures + encapsulated additives (100 g of TCCA + 0.1% additive), TCCA alone (100 g) as reference standard
[2] = Thermogravimetric analysis of the quantity of additive encapsulated in microporous or mesoporous material

Compound | mg Cl2 released [1] | % Encapsulated (g additive/g dry solid) × 100 ([2]; MIL-53 MOF, two steps, 60° C., encapsulation time 1 day) | % Encapsulated (g additive/g dry solid) × 100 ([2]; MIL-53 MOF, two steps, 60° C., encapsulation time 2 days) | % Encapsulated (g additive/g dry solid) × 100 ([2]; MIL-53 MOF, two steps, 60° C., encapsulation time 4 days) | % Encapsulated (g additive/g dry solid) × 100 ([2]; MIL-53 MOF, two steps, 60° C., encapsulation time 7 days) | % Encapsulated (g additive/g dry solid) × 100 ([2]; MIL-88 A (Al) MOF, in-situ encapsulation in one single step (Example 4)) | % Encapsulated (g additive/g dry solid) × 100 ([2]; MIL-88 A (Al) MOF, two steps, encapsulation time 3 days) | % Encapsulated (g additive/g solid total) × 100 ([2]; encapsulated in silica by impregnation (Example 1))
O=c1n(Cl)c(=O)n(Cl)c(=O)n1Cl | 1.4 mg mg Cl2 | – | – | – | – | – | – | –
icaridin | – | 27.0% | 20.5% | 24.9% | 24.9% | 16.6% | 16.0% | 53.5%
